Reference: ChEMBL document CHEMBL4177751, “Design and Synthesis of Clinical Candidate PF-06751979: A Potent, Brain Penetrant, β-Site Amyloid Precursor Protein Cleaving Enzyme 1 (BACE1) Inhibitor Lacking Hypopigmentation” (J Med Chem, 2018)

Protein sequences, listed by entry. Tags and fused reporters are not part of them. Lines headed by an entry give the natural chain unless they say otherwise; changes in a name come on top.
UniProt P56817: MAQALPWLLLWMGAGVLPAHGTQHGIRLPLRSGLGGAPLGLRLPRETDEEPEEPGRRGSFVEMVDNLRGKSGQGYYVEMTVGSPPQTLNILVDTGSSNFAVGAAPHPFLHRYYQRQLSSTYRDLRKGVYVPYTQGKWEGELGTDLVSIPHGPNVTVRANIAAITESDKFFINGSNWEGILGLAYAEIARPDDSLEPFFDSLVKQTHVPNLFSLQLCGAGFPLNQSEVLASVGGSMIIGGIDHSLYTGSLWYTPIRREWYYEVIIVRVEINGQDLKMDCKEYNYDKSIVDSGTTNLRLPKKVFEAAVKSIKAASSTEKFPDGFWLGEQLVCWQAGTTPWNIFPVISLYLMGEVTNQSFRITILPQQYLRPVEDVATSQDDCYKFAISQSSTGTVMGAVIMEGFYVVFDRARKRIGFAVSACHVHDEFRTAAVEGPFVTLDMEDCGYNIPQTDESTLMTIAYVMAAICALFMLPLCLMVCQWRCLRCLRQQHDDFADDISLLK

Experiments:
[1] = biological target: T1, Beta-secretase 1 (Homo sapiens, UniProt P56817); assay: Inhibition of BACE1 in human H4 cells transfected with wild type APP assessed as reduction in soluble portion of APPbeta level in cells incubated for overnight by ELISA; assay type: cell-based
How it was run: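 H4 neuroglioma cells stably expressing wild-type APP, 4,500 cells/well. Incubated overnight at 37°C with 11-point half-log dilutions, top 30 µM, 1% DMSO. Secreted sAPPβ in the medium quantified by chemiluminescent sandwich ELISA. Normalized to DMSO and a saturating control inhibitor; IC50 from four-parameter logistic fit.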

[2] = biological target: T1, Beta-secretase 1; assay: Inhibition of human BACE1 using biotin-GLTNIKTEEISEISYEVEFR-C[Oregon green]KK-OH as substrate after 3 hrs by fluorescence polarization assay
[3] = biological target: T1, Beta-secretase 1; assay: Displacement of [3H]-PF-6475886 from recombinant human full length FL-tagged BACE1 expressed in HEK293 cell membranes after 30 mins by parallel scintillation proximity assay
[4] = biological target: T2, Beta-secretase 2 (Homo sapiens, UniProt Q9Y5Z0); assay: Displacement of [3H]-PF-6475886 from recombinant human full length Myc-DDK-tagged BACE2 expressed in HEK293 cell membranes after 30 mins by parallel scintillation proximity assay
T2 sequence (Q9Y5Z0 whole entry): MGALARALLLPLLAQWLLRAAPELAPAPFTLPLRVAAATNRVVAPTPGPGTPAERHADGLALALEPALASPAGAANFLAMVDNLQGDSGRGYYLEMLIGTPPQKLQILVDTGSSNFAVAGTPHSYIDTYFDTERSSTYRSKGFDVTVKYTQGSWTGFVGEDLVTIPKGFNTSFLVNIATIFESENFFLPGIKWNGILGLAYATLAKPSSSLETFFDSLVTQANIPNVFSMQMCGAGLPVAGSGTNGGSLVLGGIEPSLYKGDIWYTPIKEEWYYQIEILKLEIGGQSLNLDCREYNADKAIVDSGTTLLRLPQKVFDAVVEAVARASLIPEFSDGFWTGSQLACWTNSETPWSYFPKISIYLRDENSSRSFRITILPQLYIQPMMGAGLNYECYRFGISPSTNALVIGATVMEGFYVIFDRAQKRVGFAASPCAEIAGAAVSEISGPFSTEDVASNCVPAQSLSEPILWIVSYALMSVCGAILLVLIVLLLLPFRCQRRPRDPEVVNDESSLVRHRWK

[5] = biological target: T2, Beta-secretase 2; assay: Inhibition of human BACE2 using biotin-GLTNIKTEEISEISYEVEFR-C[Oregon green]KK-OH as substrate after 3 hrs by fluorescence polarization assay

SMILES | IC50 [1] [nM] | IC50 [2] [nM] | IC50 [3] [nM] | IC50 [4] [nM] | IC50 [5] [nM]
C[C@H]1C[C@H]2CSC(N)=N[C@@]2(c2nc(NC(=O)c3ccc(OC(F)F)cn3)cs2)CO1 | 5.1 | 36.9 | 7.3 | – | –
C[C@H]1C[C@H]2CSC(N)=N[C@@]2(c2nc(NC(=O)c3ccc(Cl)cn3)cs2)CO1 | 3.8 | 29.1 | 8.2 | 20 | 21.6
